In PubChem BioAssay AID460 (PCMD, 2006) one finds inhibition data, which are given here for 19 compounds.

Protein sequences, listed by entry. Tags and fused reporters are not part of them. Lines headed by an entry give the natural chain unless they say otherwise; changes in a name come on top.
UniProt P07711: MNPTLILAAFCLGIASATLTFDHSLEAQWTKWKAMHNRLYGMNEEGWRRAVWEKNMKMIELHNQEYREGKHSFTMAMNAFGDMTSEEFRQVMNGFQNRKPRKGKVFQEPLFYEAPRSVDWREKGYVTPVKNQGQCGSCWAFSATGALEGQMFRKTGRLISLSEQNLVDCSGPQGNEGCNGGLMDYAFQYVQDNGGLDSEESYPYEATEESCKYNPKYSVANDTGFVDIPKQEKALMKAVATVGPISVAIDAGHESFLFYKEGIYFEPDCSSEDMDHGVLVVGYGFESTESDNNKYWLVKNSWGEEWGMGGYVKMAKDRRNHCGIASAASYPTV

This is a selection; strong and weak results do not stand in their true shares. Calls of active or inactive are those of the source. Rule as the data show it: active = inhibition above about 45%; inactive = the rest.

In this test the target is Procathepsin L (Homo sapiens) (UniProt P07711). Kind of test: inhibitors of human cathepsin L, biochemical (AID 460).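 Also: 0% = enzyme with no compound and 100% = no enzyme blank.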 The settings on record: purified cathepsin L, fluorogenic substrate, fluorescence; stronger effect = higher value;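 tested at 10 µM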.
What is called inhibition is the relative decrease from the control value, in per cent. Consider `O=P(Nc1nccs1)(c1ccccc1)c1nc2ccccc2s1` (centres undefined), for which the inhibition was inactive: 12.4%.
Consider `CCOP1(=S)c2c(C)nn(CCC#N)c2N=C(c2ccccc2F)N1C` (centres undefined), for which the inhibition was inactive: -0.09%.
For `CCOP1(=S)c2c(C)nn(CCC#N)c2N=C(c2ccc(F)cc2)N1C` (centres undefined) the value was inactive: 5.15%; for `Cc1cccc(OCC(=O)OC2CN3CCC2CC3)c1` (centres undefined), inactive: 14.9%; for `O=P1(Nc2ccccn2)COc2ccccc2OC1`, inactive: -11.1%.
Regarding `Clc1n[nH]nc1-c1nn[nH][15n]1`, the inhibition is inactive: -2.04%.
The figure for `Cc1nn(-c2ccccc2)c2c1P(=O)(N1CCOCC1)N(C)C(c1ccccc1)=N2` (centres undefined) is inactive: -2.82%.
Take `O=P1(Nc2ncccn2)COc2ccccc2OC1`: the inhibition is inactive: 2.46%.
Consider `O=P1(Nc2ccc(Br)cn2)COc2ccccc2OC1`, for which the inhibition is inactive: -5.5%.
The figure for `Cc1ccc(OCC(=O)OC2CN3CCC2CC3)cc1` (centres undefined) is inactive: 0.19%; for `COP1(=S)c2c(C)nn(CCC#N)c2N=C(c2ccc(F)cc2)N1C` (centres undefined) it is inactive: 7.63%; for `O=C(COc1ccccc1)OC1CN2CCC1CC2` (centres undefined) it is inactive: 7.37%.
In the case of `O=C(OC1CN2CCC1CC2)C12CC3CC(CC(C3)C1)C2` (centres undefined), the inhibition is inactive: -7.5%.
The figure for `CCc1nc2c(n1)c1c(non1O)c1c2no[n+]1[O-]` is inactive: 5.63%; for `O=C(OC1CN2CCC1CC2)c1cccc(Cl)c1` (centres undefined) it is inactive: -4.04%.
Take `O=P(Nc1nccs1)(c1ccccc1)c1ccccc1`: the inhibition is inactive: -2.19%.
For `c1nnnn1CCn1cnnn1` the value was inactive: 8.82%; for `O=P1(Nc2nc3ccc(Cl)cc3s2)COc2ccccc2O1` (centres undefined), inactive: 22.3%; for `COC(=O)c1cc2c(s1)N=C(c1ccccc1)N(C)P2(=O)N1CCOCC1` (centres undefined), inactive: -4.36%.
